Source: article PMC6010085, “Inhibition of protein tyrosine phosphatase (PTP1B) and α-glucosidase by geranylated flavonoids from Paulownia tomentosa” (Journal of Enzyme Inhibition and Medicinal Chemistry, 2017)

Molecular target: T1, recombinant human protein tyrosine phosphate 1B (PTP1B, EC 3. 1. 3. 48) (Homo sapiens, UniProt P18031)
T1 sequence (P18031 1-435): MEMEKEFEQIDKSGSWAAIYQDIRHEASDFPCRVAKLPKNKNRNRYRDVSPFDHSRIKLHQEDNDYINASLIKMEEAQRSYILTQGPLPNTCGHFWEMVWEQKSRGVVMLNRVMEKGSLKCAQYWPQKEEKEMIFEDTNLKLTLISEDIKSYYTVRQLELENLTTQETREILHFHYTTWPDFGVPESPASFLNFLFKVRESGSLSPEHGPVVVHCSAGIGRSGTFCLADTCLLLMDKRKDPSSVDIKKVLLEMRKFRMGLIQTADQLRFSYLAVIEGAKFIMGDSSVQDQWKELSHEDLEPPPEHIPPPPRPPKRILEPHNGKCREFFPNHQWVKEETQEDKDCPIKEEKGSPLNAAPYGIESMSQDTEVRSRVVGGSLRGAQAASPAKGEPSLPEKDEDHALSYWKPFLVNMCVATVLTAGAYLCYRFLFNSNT
Assay: biochemical
Method: The PTP1B inhibitory assay was carried out using a slight modification to literature reported method. p-nitrophenyl phosphate (pNPP) was used as a substrate for the measurement of enzyme activity. Buffer solution consisted of 25 mM Tris–HCl (pH 7.5), 2 mM β-mercaptoethanol, 1 mM (ethylenediaminetetraacetic acid) EDTA, and 1 mM dithiothreitol (DTT). The assay was performed by adding 10 μL test compound solution to 20 μL of enzyme (1 μg/ml), and then mixing with 40 μL of 4 mM pNPP in 130 μL of the given buffer using 96 well plate at 37 °C for 10 min. […] Lineweaver–Burk and Dixon plots methods were used to determine kinetic parameters. […]
Lineweaver–Burk plots were used for the analysis of enzyme’s inhibitory kinetics, caused by the tested bioactive compounds, and its comparison was performed with the data collected in the absence of inhibitors. Steady-state rates were determined at different inhibitor concentrations and at changing concentrations of substrate, then enzyme inhibition mechanism and related kinetic parameters were determined. […]
To determine enzyme inhibition parameters, an experiment was performed having substrate concentrations range (pNPP; 0.4–1.6 mM, pNPG; 0.075–0.3 mM), and different concentrations of tested compound, as indicated. […] Kik and Kiv rate constants were calculated according to Equations (4) and (5) proposed by Yang’s method. […]

- IC50: > 200 µM
SMILES: OCC(CO)N[C@H]1C[C@](O)(CO)[C@@H](O)[C@H](O)[C@H]1O [Voglibose, reference compound]
